Results: patent publication US7446122B2, “Substituted indole derivatives” (Cephalon, Inc., priority 2003, dated 2008)

By UniProt entry, the sequences of proteins in these tests, tags left out. Residues count along the entry.
UniProt P23219, 24-599: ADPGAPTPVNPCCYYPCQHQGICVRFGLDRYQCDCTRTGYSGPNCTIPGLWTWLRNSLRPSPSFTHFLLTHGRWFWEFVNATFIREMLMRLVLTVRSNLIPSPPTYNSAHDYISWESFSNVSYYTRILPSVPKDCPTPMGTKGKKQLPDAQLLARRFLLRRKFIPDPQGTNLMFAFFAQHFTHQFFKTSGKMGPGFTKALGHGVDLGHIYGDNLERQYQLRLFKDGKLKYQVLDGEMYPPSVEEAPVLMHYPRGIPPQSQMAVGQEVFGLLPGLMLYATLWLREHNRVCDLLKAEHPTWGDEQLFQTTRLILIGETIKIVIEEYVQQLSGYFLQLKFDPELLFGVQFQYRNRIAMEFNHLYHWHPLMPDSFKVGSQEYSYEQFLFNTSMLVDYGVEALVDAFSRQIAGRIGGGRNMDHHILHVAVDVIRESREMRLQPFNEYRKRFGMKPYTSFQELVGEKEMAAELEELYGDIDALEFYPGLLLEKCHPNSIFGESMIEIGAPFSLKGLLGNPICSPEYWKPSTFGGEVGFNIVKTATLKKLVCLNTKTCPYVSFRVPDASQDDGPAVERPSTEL

Target: T1, COX-1 (Homo sapiens, UniProt P23219)
T1 construct: endogenous in cells; host or cells: human platelets
Assay: Cox-1 assay: PGE2 formation in human platelets
Assay type: cell-based
Details: compounds are screened at 10 μM
Protocol: Test compound and/or vehicle is incubated with human platelets (10^8/ml) containing the phospholipase inhibitor MLnFP (100 μM) for 15 minutes at 37° C. Arachidonic acid (100 μM) is then added for a further 15 minute incubation period. The reaction is stopped by addition of 1 N HCl and neutralized with 1N NaOH. PGE2 levels in the supernatant are determined using the Amersham EIA kit. […]

## CCc1cccc2c3c([nH]c12)C(CC)(CC(=O)O)OCC3 (stereo not shown) [Etodolac, reference compound]
  inhibition at 10 µM: -25%
